Drawing on BindingDB's records for PubMed 2547939 (Abbott Laboratories, 1989), this text covers Ki for 1 molecule.

Protein sequences, listed by entry. Tags and fused reporters are not part of them. Lines headed by an entry give the natural chain unless they say otherwise; changes in a name come on top.
UniProt P08482: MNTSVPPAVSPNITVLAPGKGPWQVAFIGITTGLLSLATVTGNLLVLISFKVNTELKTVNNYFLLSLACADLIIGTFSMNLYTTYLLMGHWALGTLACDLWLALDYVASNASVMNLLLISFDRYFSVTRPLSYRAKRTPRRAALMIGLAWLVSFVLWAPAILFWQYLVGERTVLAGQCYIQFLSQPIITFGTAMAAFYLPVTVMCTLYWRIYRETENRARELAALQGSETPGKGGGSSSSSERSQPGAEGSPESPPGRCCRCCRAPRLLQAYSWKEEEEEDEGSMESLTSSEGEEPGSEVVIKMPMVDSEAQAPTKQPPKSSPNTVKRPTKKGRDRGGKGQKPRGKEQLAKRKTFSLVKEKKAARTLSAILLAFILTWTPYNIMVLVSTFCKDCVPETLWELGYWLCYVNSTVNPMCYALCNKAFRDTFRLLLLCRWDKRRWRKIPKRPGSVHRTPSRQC

SMILES strings stand for the structures.

The assay addresses Muscarinic acetylcholine receptor M1 (Rattus norvegicus, UniProt P08482).

Usually Ki stands for the dissociation constant of the complex between target and ligand, obtained from inhibition or displacement. `COc1ccccc1CNCCCCCCNCCCCCCCCNCCCCCCNCc1ccccc1OC` [METHOCTRAMINE] yielded a Ki of 34.7 nM.
